# Data from US9446044B2, “DYRK1 inhibitors and uses thereof” (DIAXONHIT, priority 2011, dated 2016).
# By UniProt entry, the sequences of proteins in these tests, tags left out.
# UniProt Q9Y463, whole entry: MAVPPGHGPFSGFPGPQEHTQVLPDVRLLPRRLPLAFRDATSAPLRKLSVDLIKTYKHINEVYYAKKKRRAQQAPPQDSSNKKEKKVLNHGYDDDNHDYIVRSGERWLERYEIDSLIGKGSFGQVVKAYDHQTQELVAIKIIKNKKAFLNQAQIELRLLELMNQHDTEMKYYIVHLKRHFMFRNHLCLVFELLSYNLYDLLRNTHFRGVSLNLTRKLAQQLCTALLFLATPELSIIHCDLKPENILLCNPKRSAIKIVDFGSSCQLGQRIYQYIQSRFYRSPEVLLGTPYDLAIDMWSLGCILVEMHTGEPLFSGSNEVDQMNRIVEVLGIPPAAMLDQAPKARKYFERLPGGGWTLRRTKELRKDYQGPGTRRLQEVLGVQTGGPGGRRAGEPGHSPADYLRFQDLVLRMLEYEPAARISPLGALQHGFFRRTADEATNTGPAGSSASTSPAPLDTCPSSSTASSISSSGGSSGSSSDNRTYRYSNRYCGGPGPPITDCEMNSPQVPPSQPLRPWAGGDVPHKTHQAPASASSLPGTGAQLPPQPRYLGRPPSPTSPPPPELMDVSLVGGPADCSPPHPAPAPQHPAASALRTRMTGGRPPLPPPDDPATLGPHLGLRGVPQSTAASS
# What was measured:
# [1] = target: DYRK1A (Homo sapiens (Human), UniProt Q13627); test: DYRK1A kinase assay (HotSpot, Reaction Biology); assay type: biochemical; settings: purified recombinant kinase, 10 μM ATP, room temperature 120 min
# [2] = target: DYRK1B (Homo sapiens (Human), UniProt Q9Y463); test: DYRK1B kinase assay (HotSpot, Reaction Biology); assay type: biochemical
smiles,measurement,setting,value
"COC(=N)c1nc2ccc3ncnc(Nc4ccc5nc[nH]c5c4)c3c2s1 [Compound 59, Methyl 9-(1H-benzo[d]imidazol-6-ylamino)thiazolo[5,4-f]quinazoline-2-carbimidate]",IC50,[1],4.44 nM
same,IC50,[2],4.65 nM
